The source of these data is US20030158199A1, “Novel compounds for inhibition of Tie-2” (KYLIX, B.V., priority 2002, published 2003).

Amino acid sequences for entries named in this document (tags omitted). Residues count along the entry.
UniProt Q02763, 771-1124 limits assumed: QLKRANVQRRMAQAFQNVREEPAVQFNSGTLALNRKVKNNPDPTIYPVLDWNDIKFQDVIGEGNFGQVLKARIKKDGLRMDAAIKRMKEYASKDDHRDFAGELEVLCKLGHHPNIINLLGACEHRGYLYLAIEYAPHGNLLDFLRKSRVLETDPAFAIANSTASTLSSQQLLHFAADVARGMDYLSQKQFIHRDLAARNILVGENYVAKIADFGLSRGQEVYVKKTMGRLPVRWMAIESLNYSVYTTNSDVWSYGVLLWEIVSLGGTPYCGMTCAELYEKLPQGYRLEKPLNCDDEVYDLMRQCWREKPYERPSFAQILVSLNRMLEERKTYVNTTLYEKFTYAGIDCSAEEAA
UniProt P35968, 807-1356 limits assumed: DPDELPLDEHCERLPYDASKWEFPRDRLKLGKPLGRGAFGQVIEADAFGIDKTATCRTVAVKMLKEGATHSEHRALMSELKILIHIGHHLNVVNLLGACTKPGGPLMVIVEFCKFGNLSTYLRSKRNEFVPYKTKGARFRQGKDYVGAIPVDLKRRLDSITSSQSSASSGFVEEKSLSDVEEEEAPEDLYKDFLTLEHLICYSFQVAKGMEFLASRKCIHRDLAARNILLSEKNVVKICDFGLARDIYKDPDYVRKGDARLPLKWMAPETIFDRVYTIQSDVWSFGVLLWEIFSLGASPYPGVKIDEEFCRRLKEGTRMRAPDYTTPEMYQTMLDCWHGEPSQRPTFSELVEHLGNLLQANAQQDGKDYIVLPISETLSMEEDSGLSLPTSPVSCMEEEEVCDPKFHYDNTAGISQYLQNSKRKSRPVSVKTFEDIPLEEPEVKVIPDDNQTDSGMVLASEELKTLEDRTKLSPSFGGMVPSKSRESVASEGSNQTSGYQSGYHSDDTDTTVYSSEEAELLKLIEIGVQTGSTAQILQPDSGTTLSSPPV
UniProt P08581, 956-1390 limits assumed: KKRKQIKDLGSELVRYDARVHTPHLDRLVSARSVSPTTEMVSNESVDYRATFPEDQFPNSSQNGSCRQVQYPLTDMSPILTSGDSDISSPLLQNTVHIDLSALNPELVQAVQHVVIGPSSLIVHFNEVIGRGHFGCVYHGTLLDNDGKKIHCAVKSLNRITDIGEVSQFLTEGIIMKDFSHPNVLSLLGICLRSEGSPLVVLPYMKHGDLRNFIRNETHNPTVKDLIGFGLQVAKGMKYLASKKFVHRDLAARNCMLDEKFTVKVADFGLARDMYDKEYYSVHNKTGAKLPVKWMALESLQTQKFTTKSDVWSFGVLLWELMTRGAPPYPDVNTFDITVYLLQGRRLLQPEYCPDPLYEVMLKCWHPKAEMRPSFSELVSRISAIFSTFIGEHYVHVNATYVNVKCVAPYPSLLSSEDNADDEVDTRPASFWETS

Structures are written as SMILES.

In one assay the target is Tie-2 (Homo sapiens, UniProt Q02763). The assay can be described thus: RTK ELISA, recombinant kinase domain, Tie-2. The note with it: read-out: IC50 Tie-2, GST-Tie2/Tek (aa 771-1124) expressed in baculovirus infected insect cells, tested form: HBr. As for the experimental part:
(§1) Follwing IC50 values were determined in the RTK ELISA using recombinant kinase domains of receptor tyrosine kinases which were expressed in baculovirus infected insect cells.
(§2) Receptor Tyrosine Kinase Assay
(§3) The following in vitro assays are used to determine the ability of different compounds to inhibit the transfer of phosphate groups onto tyrosine residues of downstream substrates. The level of phosphorylation is measured by a monoclonal antibody which is specific for phosphorylated tyrosine residues in an enzyme-linked immunosorbent assay (ELISA).
(§4) The following recombinant kinases were expressed in baculovirus infected insect cells Sf9 and purchased from ProQuinase, Freiburg:
(§5) If not otherwise indicated all steps are performed at room temperature.
(§6) 1.) Coat wells of ELISA plate with […] Poly-Glu-Tyr 4:1 in 100 μl/well PBS buffer (137 mM NaCl, 3 mM KCl, 1.5 mM KH2PO4, 8.2 mM Na2HPO4) overnight at 4° C.
(§7) 2.) Wash 2 times for 5 min each with PBS+0.05% Tween20 […]
(§8) a) Add 5-30 ng/well kinase in 50 μl/well kinase buffer (100 mM HEPES pH 7.4, 100 mM NaCl, 0.1 mM Na3VO4) b) Add 25 μl/well compound (50 and 5 μM) in 5% DMSO c) Add 25 μl/well 100 μM ATP in 40 mM MnCl2
(§9) 4.) Wash 3 times for 5 min each with PBS+0.05% Tween20
(§10) 5.) Add anti phosphotyrosin antibody/HRP 1:10.000 in 100 μl/well PBS+0.05% Tween+0.1 BSA, incubate for 1 h […]
(§11) 8.) Detect chemoluminescence signals in Tecan Genios reader
(In general: An ELISA detects its analyte on a solid surface through an enzyme-linked reagent.)

The target of the next assay is KDR (Homo sapiens, UniProt P35968). Nature of the assay: RTK ELISA, recombinant kinase domain, KDR. The settings on record: read-out: IC50 KDR, GST-KDR (aa807-1356) expressed in baculovirus infected insect cells, tested form: HBr. As for the experimental part:
as §1, §2, §3, §4, §5, §6, §7, §8, §9, §10, §11

A further assay concerns the target c-Met (Homo sapiens, UniProt P08581). Nature of the assay: RTK ELISA, recombinant kinase domain, c-Met. The note with it: read-out: IC50 c-Met, GST-cMet (aa956-1390) expressed in baculovirus infected insect cells, tested form: HBr. How it is done:
as §1, §2, §3, §4, §5, §6, §7, §8, §9, §10, §11

With `c1cncc(-c2nc(-c3ccc(N4CCCC4)cc3)cs2)c1`, the IC50 on Tie-2 was less than 1000 nM; on KDR, 1000 nM; at c-Met it was 3000 nM.
